Results on 1 molecule are retold here after publication PMC3983056 (PLoS Pathogens, 2014).

For this experiment, the target named is T1, human HDAC-10 (Homo sapiens, UniProt Q969S8).
T1 construct: purchased Reaction Biology Corporation (Malvern, PA)
T1 sequence (Q969S8 1-669): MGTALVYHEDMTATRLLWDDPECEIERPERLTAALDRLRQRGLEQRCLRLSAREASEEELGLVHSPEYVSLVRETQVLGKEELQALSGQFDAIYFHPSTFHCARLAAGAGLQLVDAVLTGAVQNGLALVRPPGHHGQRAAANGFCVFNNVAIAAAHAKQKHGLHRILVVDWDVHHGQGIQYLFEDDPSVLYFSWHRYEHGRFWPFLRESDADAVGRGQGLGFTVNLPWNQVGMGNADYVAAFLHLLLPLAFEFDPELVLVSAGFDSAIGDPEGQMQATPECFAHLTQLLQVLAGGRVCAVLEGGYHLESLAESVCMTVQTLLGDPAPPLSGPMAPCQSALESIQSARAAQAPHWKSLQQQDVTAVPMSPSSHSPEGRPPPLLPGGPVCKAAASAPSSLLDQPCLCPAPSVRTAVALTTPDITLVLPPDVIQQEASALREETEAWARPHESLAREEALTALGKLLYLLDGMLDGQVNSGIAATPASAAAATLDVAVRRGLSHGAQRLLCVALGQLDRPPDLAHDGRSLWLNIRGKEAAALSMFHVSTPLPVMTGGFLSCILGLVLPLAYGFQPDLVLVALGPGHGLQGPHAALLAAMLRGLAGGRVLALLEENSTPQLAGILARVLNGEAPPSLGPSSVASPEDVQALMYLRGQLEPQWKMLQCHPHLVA
Kind of experiment: HDAC inhibition assay. In kind it is biochemical. The settings on record: HDAC class 2b; mean of two experiments.

Each structure is given as a SMILES string.

For `O=C(CCCCCCC(=O)Nc1ccccc1)NO` [VOR, suberoylanilide hydroxamic acid], half-maximal inhibition (IC50) required 527 nM.

By IC50 is commonly meant the concentration at which inhibition is half-maximal. Low readings indicate higher potency, high ones lower potency.
